Antibody variant affinities, Ab-95 light chain, assay 2

Values reported by Engelhart et al. 2022, doi:10.1038/s41597-022-01779-4 (FLAb copy).

Binding partner: SARS-CoV-2 spike HR2 peptide, sequence PDVDLGDISGINAS.

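Variants in AAYL52 differ from the parent at up to three CDR positions; double and triple changes were sampled at random. The scFvs were displayed on barcoded MATa yeast, the peptide on MATalpha yeast. Pairs that bind mate more often; barcode pairs of the diploids are counted by sequencing. A regression on co-assayed BCL2-family reference pairs converts the normalised counts of each replicate to an apparent Kd. Mating was done three times.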

Parent scFv Ab-95: VH joined to VL by the linker GGGGSGGGGSGGGGS. Changes lie in the light chain CDRs alone.
VH: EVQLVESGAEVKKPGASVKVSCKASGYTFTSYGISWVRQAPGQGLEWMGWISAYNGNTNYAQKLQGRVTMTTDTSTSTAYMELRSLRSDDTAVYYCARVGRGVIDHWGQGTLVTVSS
VL: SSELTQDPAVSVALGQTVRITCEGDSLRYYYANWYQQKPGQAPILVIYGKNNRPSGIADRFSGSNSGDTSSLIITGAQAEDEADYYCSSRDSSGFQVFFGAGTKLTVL

Each variant is given by its three light chain CDRs, as the data file delimits them; those of the parent are EGDSLRYYYAN, GKNNRPS, SSRDSSGFQVF.
Affinities are written as log10 Kd with Kd in nM; a lower number is a better binder.
"ND" marks a missing value. The strain was present, yet no cells mated with the target were sequenced in that replicate, which points to weak or no binding.
Nonspecific signal, from three strains lacking the peptide, appeared in 28% of pairings of library AAYL52, centred on 3.91 (5% of these signals below 2.90); values are not corrected for it. The control count says in how many pairings with the empty strains this scFv gave a signal, with their mean in brackets.

| CDR-L1 | CDR-L2 | CDR-L3 | log10 Kd (nM) by replicate | signal with controls |
|---|---|---|---|---|
| EGDSLRYYYAN | MKNNRPS | SSRDSRGFQVF | 3.78 3.93 4.64 | 2 of 9 (3.93) |
| EGNSLRYYYAN | GKNNRPS | SSLGSSGFQVF | 4.29 3.54 ND | 1 of 9 (5.44) |
| TYRSLRYYYAN | GKNNRPS | SSRDSSGFQVF | 2.53 2.29 2.56 | 2 of 9 (3.46) |
| EGDSLRYYVAN | GKNNRPS | SSQDSSGFQVV | ND 4.42 4.10 | 3 of 9 (3.83) |
| EGDSLREYYAN | GKNNRPS | SSRDSRGFGVF | 2.56 2.59 2.19 | 3 of 9 (5.03) |
| EKDSLRYYYAN | GKNNRPS | SSRMSSGFQVW | 4.23 ND 4.44 | 1 of 9 (3.67) |
| EGSSLRYGYAN | IKNNRPS | SSRDSSGFQVF | ND 3.76 ND | 6 of 9 (4.17) |
| EGDSLRYDYAN | GINNRPS | SSRDSSGFQQF | ND ND ND | 4 of 9 (4.04) |
| EGDSLRYYYAN | GKINRPS | SSRDSIQFQVF | 3.24 3.52 4.08 | 2 of 9 (4.38) |
| EGVSLGYYYKN | GKNNRPS | SSRDSSGFQVF | 4.57 4.35 4.79 | 2 of 9 (3.94) |
| EGDSLRYYYAN | VKNNRPS | SSRDSQGFMVF | ND ND ND | 3 of 9 (3.38) |
| EGISLRYYYAN | GKCNRPS | SSRDSSFFQVF | ND 3.08 ND | 1 of 9 (3.91) |
| EGDSLRYYHAN | DKFNRPS | SSRDSSGFQVF | 2.95 2.63 2.66 | 1 of 9 (3.51) |
| EGDWLRYYYAT | GKNNRPS | GSRDSSGFQVF | ND ND ND | 5 of 9 (3.76) |
| EGDSLRYYYAN | GKNNRPI | SARDSSGVQVF | 3.42 ND ND | 2 of 9 (3.96) |
| EGDSLRYYYAN | GKNIRPS | SFKDSSGFQVF | 4.31 4.17 3.35 | 3 of 9 (4.11) |
| ESDSLRYYYAN | GKHNRPH | SSRDSSGFQVF | 3.42 ND ND | 4 of 9 (3.76) |
| EADSLRYYYDN | GKNNRFS | SSRDSSGFQVF | 3.46 ND ND | 4 of 9 (3.93) |
| EGDSLRYYYAN | GKNARCS | SSRDSSGFQVI | ND ND ND | 1 of 9 (3.17) |
| EGDSLTYYYGN | GKNNRPS | SSRDSSGFQYF | ND ND ND | 2 of 9 (3.79) |
| VGDSLRYYYAN | GKNNRPS | FSRDSSGFQFF | 3.29 3.81 2.09 | 3 of 9 (3.64) |
| EGDSLMYYYAN | GKNNRPS | CSRDSSGFQHF | 2.95 ND ND | 3 of 9 (4.02) |
| EGDSLRYYYAT | GENNRPS | SSSDSSGFQVF | 3.74 ND ND | 5 of 9 (4.64) |
| EGDSLRYYEAN | GKNNRPS | SSVDSSGFWVF | 1.18 1.36 0.84 | 2 of 9 (4.34) |
| EMDSLRYYYAN | GKNIRPS | SSRESSGFQVF | 5.29 3.19 3.32 | 3 of 9 (3.42) |
| EFDSLRYYYAN | GKNNRPT | SSRDSSKFQVF | ND 4.55 ND | 0 of 9 |
| EGDSLRYYYAN | GKNNRPS | ISRDRSGFDVF | ND ND ND | 0 of 9 |
| EGDSLDYYYAN | GKNHAPS | SSRDSSGFQVF | 3.40 3.98 3.44 | 1 of 9 (3.09) |
| EGDPLRYYYAN | GKNIRPS | RSRDSSGFQVF | ND ND ND | 0 of 9 |
| EGDSLRYYYAN | GKNNKPS | SSRDSYGFQVF | 3.33 3.01 ND | 1 of 9 (4.37) |
| EGDSLRYFYIN | GKNNRPS | SSRDHSGFQVF | 4.34 ND 3.99 | 4 of 9 (3.85) |
| EGDSLRYEYAN | GKNNRPS | SLRDSSGFMVF | 1.64 1.65 1.21 | 6 of 9 (4.28) |
| EGNSLRYYYAR | GKNNRPS | SSRDSSPFQVF | 4.14 ND ND | 2 of 9 (3.29) |
| EGDSLRYYYAN | GKRNRPS | YSRDDSGFQVF | ND 3.58 ND | 3 of 9 (4.03) |
| EGDSLPYYAAN | GKNNRPS | SPRDSSGFQVF | ND 5.41 ND | 2 of 9 (3.85) |
| EGYSLWYDYAN | GKNNRPS | SSRDSSGFQVF | 2.38 2.08 2.09 | 2 of 9 (3.66) |
| EGPSLRYYYAN | GKWNRPS | SSRDSSVFQVF | ND ND ND | 1 of 9 (2.89) |
| EPDSLRYYYAN | GKNNRPS | SSRDSSGFNVF | ND ND ND | 2 of 9 (3.89) |
| EGDSLVYYYAN | GKNNRPW | SSRDSVGFQVF | 4.22 4.76 3.99 | 2 of 9 (4.64) |
| EGDSLRYYYAL | GKNDRPS | SSRDSSGFQVL | 4.08 ND ND | 0 of 9 |

Extract of 6 entries:

{"CDR-L1": "EGDSLRYYYAN", "CDR-L2": "GKNARCS", "CDR-L3": "SSRDSSGFQVI", "log10 Kd (nM) by replicate": "ND ND ND", "signal with controls": "1 of 9 (3.17)"}
{"CDR-L1": "EGDSLRYYYAT", "CDR-L2": "GENNRPS", "CDR-L3": "SSSDSSGFQVF", "log10 Kd (nM) by replicate": "3.74 ND ND", "signal with controls": "5 of 9 (4.64)"}
{"CDR-L1": "EGDSLREYYAN", "CDR-L2": "GKNNRPS", "CDR-L3": "SSRDSRGFGVF", "log10 Kd (nM) by replicate": "2.56 2.59 2.19", "signal with controls": "3 of 9 (5.03)"}
{"CDR-L1": "EGDSLRYYYAN", "CDR-L2": "GKNNRPI", "CDR-L3": "SARDSSGVQVF", "log10 Kd (nM) by replicate": "3.42 ND ND", "signal with controls": "2 of 9 (3.96)"}
{"CDR-L1": "EADSLRYYYDN", "CDR-L2": "GKNNRFS", "CDR-L3": "SSRDSSGFQVF", "log10 Kd (nM) by replicate": "3.46 ND ND", "signal with controls": "4 of 9 (3.93)"}
{"CDR-L1": "TYRSLRYYYAN", "CDR-L2": "GKNNRPS", "CDR-L3": "SSRDSSGFQVF", "log10 Kd (nM) by replicate": "2.53 2.29 2.56", "signal with controls": "2 of 9 (3.46)"}